ChEMBL document CHEMBL1138050, “Furan-2-ylmethylene thiazolidinediones as novel, potent, and selective inhibitors of phosphoinositide 3-kinase gamma” (J Med Chem, 2006)

The chains behind the UniProt entries cited, without tags or fusion partners. Where a name states a change or a piece, a line headed by the entry shows the natural chain unless it says otherwise.
UniProt P48736: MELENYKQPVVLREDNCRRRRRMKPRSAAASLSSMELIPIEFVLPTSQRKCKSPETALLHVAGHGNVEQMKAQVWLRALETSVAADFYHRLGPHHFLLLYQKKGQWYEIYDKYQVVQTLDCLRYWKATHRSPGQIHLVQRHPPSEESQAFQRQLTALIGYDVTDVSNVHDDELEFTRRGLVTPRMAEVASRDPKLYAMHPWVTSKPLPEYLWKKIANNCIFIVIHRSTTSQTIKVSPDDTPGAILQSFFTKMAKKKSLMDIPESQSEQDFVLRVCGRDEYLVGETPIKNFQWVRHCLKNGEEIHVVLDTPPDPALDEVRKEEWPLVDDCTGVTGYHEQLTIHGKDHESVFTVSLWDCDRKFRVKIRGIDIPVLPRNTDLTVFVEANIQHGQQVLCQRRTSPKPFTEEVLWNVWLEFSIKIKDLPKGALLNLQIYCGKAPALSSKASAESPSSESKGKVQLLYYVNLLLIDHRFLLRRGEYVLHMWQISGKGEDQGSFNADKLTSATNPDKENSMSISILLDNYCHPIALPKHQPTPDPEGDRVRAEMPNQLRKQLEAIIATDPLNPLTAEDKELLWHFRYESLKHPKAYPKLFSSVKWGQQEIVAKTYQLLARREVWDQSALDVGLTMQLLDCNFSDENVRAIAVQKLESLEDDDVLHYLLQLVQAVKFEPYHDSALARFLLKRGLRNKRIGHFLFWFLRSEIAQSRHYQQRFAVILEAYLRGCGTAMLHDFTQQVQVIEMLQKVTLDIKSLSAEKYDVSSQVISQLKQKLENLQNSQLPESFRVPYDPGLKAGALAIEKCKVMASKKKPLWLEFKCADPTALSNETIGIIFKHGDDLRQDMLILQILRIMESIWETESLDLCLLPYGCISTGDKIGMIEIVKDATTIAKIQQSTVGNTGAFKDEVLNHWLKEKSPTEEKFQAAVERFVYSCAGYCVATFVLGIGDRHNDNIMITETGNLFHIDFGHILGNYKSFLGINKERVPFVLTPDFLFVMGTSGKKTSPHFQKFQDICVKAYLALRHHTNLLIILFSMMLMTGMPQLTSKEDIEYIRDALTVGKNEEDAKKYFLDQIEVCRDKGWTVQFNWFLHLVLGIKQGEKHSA
UniProt P67870, whole entry, looked up: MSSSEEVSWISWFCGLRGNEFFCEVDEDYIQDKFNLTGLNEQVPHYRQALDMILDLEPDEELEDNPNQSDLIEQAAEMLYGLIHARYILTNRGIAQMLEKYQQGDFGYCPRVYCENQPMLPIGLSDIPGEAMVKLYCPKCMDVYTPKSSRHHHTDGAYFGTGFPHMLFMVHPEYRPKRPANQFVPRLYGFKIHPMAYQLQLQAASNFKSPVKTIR
UniProt P68400, whole entry, looked up: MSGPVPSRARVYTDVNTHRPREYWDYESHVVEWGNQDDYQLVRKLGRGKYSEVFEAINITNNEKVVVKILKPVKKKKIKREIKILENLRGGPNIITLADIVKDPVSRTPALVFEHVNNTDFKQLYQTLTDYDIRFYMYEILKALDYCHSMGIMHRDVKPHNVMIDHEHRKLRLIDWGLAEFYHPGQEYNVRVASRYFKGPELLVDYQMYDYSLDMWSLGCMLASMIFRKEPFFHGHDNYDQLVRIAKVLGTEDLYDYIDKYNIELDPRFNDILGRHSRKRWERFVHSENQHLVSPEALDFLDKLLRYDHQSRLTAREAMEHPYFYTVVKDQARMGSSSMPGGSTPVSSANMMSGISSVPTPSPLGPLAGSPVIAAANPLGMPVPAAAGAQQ
UniProt P19784, whole entry, looked up: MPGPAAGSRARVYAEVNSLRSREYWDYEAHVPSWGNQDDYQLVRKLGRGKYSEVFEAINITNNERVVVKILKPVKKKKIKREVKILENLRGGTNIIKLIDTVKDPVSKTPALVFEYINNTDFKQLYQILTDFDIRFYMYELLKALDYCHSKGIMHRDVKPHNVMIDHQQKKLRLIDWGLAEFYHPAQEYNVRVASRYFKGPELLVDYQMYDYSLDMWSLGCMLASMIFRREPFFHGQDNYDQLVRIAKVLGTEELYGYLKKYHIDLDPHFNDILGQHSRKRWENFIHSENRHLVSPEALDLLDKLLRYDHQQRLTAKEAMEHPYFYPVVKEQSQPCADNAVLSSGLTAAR

What was measured:
[1] = biological target: Phosphatidylinositol 4,5-bisphosphate 3-kinase catalytic subunit gamma isoform (Homo sapiens, UniProt P48736); test: Inhibition of human PI3Kgamma
[2] = biological target: Casein kinase II (Homo sapiens) (UniProt P67870+P68400+P19784); test: Residual activity at human CK2 at 10 uM in presence of 10 uM ATP relative to control; type: protein-complex assay

| IC50 [1] [µM] | Activity [2] [%] | SMILES |
| --- | --- | --- |
| 7.26 | – | O=c1cc(N2CCOCC2)oc2c(-c3ccccc3)cccc12 [LY-294002] |
| – | 6 | O=C1NC(=O)/C(=C/c2ccc(-c3ccc(F)cc3O)o2)S1 |
